Earlier results as cited in publication PMC9930120 (Journal of Chemical Information and Modeling, 2023).
pKi: −log10 of the molar value.

The chains behind the UniProt entries cited, without tags or fusion partners.
UniProt P34972, whole entry: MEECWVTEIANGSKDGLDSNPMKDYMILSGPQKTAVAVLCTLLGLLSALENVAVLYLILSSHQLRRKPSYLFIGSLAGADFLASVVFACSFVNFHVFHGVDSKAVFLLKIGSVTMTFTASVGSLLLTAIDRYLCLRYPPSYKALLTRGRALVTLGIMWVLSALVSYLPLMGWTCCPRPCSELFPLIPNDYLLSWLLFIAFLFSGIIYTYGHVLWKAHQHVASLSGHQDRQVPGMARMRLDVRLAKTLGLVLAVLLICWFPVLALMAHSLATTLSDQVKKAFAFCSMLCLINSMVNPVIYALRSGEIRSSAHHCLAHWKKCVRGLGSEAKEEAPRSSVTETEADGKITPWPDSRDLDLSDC

Biological target: human CB2 (Homo sapiens, UniProt P34972)
Conditions: cited from earlier work

Cc1c(C(=O)NN2CCCCC2)nn(-c2ccc(Cl)cc2Cl)c1-c1ccc(I)cc1 [AM-251]
pKi: 6.96
